Laboratory results as given in patent publication US12551434B2, “Zwitterionic polymer particle compositions and related methods” (WAYNE STATE UNIVERSITY, priority 2020, dated 2026).

Format: in vitro ADME, porcine
Procedure: Tracking nanoparticle diffusion in mucus. Nanoparticle diffusion behavior in mucus was studied by modifying methods as described in Lai, S. K. et al. P Natl Acad Sci USA 104, 1482-1487 (2007) and Olmsted, S. S. et al. Biophys J 81, 1930-1937 (2001). Mucus was reconstituted by dissolving porcine stomach mucin in phosphate buffered saline (PBS) at 30 mg/ml. Nanogels were added into 100 μl mucus to reach a final concentration of 3% vol/vol (final particle concentration, 8.25×10^−7 wt/vol) and incubated for 1 h on a Nunc™ glass bottom dish (0.17 mm thickness for the inside bottom glass) before observation. Movies were captured with 64×oil-immersion objective in a spinning disc confocal microscope (Yokogawa CSU-X1M 5000 microlens, Zeiss LSM 800). For each nanogel sample, trajectories of n=50 particles were analyzed, and three samples were examined for each type of nanogel. MSD was calculated with the equation of MSD=<|r(t)-r(0)|^2> at a temporal resolution of 200 ms for 20 s.

Substance: poly(3-[[2-(methacryloyloxy)ethyl]dimethylammonio]propionate) [zwitterionic PCB particle]
- MSD relative to anionic and cationic particles: ≥ 100 times
- ensemble-averaged geometric mean square displacement (MSD) relative to the PEG particle: about 6.7 times
